Experiment: Identification of absorbed peptides in plasma (PDA-HPLC, LC-MS/MS)
Assay type: in vivo
Details: pigs fed Peptide Composition 1 (Example 1), blood collected during dissection; 3 peptide peaks present
Description: First, between 3 and 5 day-old 18 pigs were divided into 3 groups and they were bred for 3 days. Then the groups were designated as test groups (Example 1 and Comparative Example 1) and a control group (Comparative Example 2) and 1.25 g of dextran sulfate per kg of body weight was given as drinking water for 5 days (DSS treatment). Then, 250 mg of Peptide Composition 1 per kg of body weight was fed for 5 days in Example 1, 250 mg of Peptide Composition 2 per kg of body weight was fed for 5 days in Comparative Example 1, and alanine corresponding to the nitrogen content of the peptide was fed in Comparative Example 2. After that, the intestinal tract cells were collected during dissection and cytokines were measured. Comparative Example 2 corresponds to the control. (Dextran sulfate is a substance which induces bowel inflammation. International J. of Colorectal Disease, 15, 144-160 (2000))
Blood was collected during dissection and plasma was isolated, and then the structural analysis of a peak obtained by PDA-HPLC was carried out by LC-MS/MS to identify an amino acid sequence of the peptides.

## CC(C)[C@H](N)C(=O)N1CCC[C@H]1C(=O)N[C@@H](Cc1ccc(O)cc1)C(=O)O [VPY, Val-Pro-Tyr]
  peptide peak present in plasma: second largest peak
